Assay results taken from PubChem BioAssay (EPA / NIEHS).
The entries are a selection whose mix differs from that of the whole data set. Records with an inconclusive call do not appear. The source made the active and inactive calls. Rule for the calls, unless noted: active = hit-call score of the fitted dose curve at least 0.9, where 1 is the maximum; inactive = score below 0.9.

Chains of the proteins cited; added tags and fusions are not shown.
UniProt P08047, whole entry: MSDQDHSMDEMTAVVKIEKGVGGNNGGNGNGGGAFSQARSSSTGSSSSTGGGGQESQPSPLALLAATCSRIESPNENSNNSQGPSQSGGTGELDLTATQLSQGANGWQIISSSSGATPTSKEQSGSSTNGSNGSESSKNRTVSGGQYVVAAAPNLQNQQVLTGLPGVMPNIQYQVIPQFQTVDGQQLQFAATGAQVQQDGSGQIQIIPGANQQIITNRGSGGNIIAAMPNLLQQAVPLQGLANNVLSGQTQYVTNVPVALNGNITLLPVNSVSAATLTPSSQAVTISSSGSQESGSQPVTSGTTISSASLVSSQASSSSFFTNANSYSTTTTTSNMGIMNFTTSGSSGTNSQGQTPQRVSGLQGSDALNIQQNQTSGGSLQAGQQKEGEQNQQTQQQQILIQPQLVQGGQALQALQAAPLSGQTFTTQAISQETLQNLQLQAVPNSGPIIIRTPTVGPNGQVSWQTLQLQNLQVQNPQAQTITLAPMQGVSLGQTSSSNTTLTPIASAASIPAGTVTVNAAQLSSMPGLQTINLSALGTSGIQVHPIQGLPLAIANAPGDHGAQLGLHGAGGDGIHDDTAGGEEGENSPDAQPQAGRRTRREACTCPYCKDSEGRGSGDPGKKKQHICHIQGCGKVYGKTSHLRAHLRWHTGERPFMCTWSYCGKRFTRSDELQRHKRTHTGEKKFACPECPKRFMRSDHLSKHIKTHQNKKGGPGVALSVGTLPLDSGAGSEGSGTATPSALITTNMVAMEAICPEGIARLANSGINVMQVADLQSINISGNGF
UniProt P17861, whole entry: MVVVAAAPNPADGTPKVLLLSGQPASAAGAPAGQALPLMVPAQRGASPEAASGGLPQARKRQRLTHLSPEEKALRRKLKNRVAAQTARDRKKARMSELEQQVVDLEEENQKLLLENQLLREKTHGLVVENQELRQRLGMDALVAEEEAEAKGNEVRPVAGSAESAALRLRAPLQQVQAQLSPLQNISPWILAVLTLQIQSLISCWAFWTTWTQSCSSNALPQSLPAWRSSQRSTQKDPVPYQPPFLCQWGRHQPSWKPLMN

Key:
[1] = target: Transcription factor Sp1 (Homo sapiens) (UniProt P08047); test: ATG_Sp1_CIS: Attagene CIS-FACTORIAL HepG2 Assay for human Specificity Protein 1 (Sp1) (AID 2282961); conditions: HepG2 Sp1 cis-reporter transcription, actives raise or lower the signal
Method in brief: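 Endogenous Sp1 activity was gauged in human liver HepG2 cells bearing transfected reporter units under a cis-regulating promoter. After 24 h dosing, reporter mRNA was quantified by RT-PCR with capillary electrophoresis, and activity fitted bidirectionally versus DMSO.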

[2] = target: X-box-binding protein 1 (Homo sapiens) (UniProt P17861); test: ATG_Xbp1_CIS: Attagene CIS-FACTORIAL HepG2 Assay for human X-box Binding Protein 1 (XBP1) (AID 2282972); conditions: HepG2 XBP1 cis-element reporter, Attagene multiplex; actives raise or lower the signal
Method in brief: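 Multiplexed cis-reporter readout in transfected HepG2 liver cells. Exposure lasted 24 hours. Activity in either direction was fitted against DMSO as negative control and baseline.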

[3] = BSK_hDFCGF_Proliferation: Cell Proliferation Assessment in the BioMAP Diversity Plus: hDFCGF Assay (AID 2283059); conditions: primary human foreskin fibroblasts;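 note: curves fitted for both rise and fall of signal versus DMSO baseline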
Method in brief: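 Primary human foreskin fibroblasts, sub-confluent; […]; 10% TCA fix, 0.1% SRB stain, A560 total protein. Gain/loss fitted bidirectionally vs DMSO control.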

[4] = STM_H9_NormalizedViability: Cytotoxicity Assessment at 120 hours in the Stemina devTOX quickPredict H9 human embryonic stem cell (hESC)-based Assay (AID 2283784; active = hit-call score of the fitted dose curve at least 0.9, where 1 is the maximum)
Method in brief: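 CellTiter-Fluor RFU, background-subtracted, expressed relative to 0.1% DMSO neutral control by plate. Pluripotent H9 cells; treatment with daily re-dosing. Plates carried 1uM methotrexate (positive) and 5 nM methotrexate (negative) references.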

[5] = read-out: Interleukin 17A (IL17A), IL17A (gene 3605); test: BSK_BT_xIL17A: BioMAP Diversity Plus: BT Assay for Interleukin 17A (IL17A) Biomarker Activity (AID 2284229); conditions: primary human B cells with PBMC
Method in brief: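 Co-culture of human B cells and PBMC, dosed for 24 h in 96-well format. Secreted IL-17A measured with Luminex xMAP; gain-direction fitting against DMSO as baseline.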

[6] = read-out: Interleukin 2 (IL2), IL2 (gene 3558); test: BSK_BT_xIL2: BioMAP Diversity Plus: BT Assay for Interleukin 2 (IL2) Biomarker Activity (AID 2284245); conditions: primary human B cells with PBMC
Method in brief: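 Readout: supernatant IL-2 via Luminex xMAP after 24 h chemical dosing of a B cell/PBMC primary human co-culture. DMSO serves as negative control and baseline; increases in signal were fitted.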

[7] = ATG_PXRE_CIS: Attagene CIS-FACTORIAL HepG2 Assay for human Pregnane X Receptor Element (PXRE) (AID 2282957); conditions: HepG2 Attagene CIS-FACTORIAL PXRE reporter, mRNA; actives raise or lower the signal
Method in brief: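 After a 24 h chemical incubation, total RNA from transfected HepG2 cells was reverse-transcribed and reporter cDNA amplified, FAM-labeled, HpaI-digested and sized by capillary electrophoresis. DMSO served as baseline for bidirectional curve fitting.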

Measured: AC50

O=[N+]([O-])c1ccc([N+](=O)[O-])cc1
active: [1] 81.9 µM | [2] 57.5 µM | [3] 10.3 µM | [4] 58.1 µM | [5] 24.6 µM | [6] 28.9 µM

CCCCOP(OCCCC)OCCCC
active: [7] 10.2 µM
